Chains of the proteins cited; added tags and fusions are not shown.
UniProt P15170, whole entry: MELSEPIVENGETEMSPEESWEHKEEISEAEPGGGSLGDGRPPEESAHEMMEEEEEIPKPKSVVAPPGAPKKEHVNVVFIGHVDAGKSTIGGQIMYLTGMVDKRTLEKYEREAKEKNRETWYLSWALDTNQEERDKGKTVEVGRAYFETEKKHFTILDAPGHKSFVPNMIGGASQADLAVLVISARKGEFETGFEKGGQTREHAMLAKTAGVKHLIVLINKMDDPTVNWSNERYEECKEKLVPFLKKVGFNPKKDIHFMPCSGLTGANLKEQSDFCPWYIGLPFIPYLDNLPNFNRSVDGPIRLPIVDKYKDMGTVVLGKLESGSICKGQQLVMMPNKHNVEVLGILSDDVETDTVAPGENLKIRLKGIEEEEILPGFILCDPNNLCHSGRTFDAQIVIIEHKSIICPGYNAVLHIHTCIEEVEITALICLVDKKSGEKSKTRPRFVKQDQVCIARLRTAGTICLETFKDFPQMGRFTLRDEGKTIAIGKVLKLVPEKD
UniProt Q96SW2, whole entry: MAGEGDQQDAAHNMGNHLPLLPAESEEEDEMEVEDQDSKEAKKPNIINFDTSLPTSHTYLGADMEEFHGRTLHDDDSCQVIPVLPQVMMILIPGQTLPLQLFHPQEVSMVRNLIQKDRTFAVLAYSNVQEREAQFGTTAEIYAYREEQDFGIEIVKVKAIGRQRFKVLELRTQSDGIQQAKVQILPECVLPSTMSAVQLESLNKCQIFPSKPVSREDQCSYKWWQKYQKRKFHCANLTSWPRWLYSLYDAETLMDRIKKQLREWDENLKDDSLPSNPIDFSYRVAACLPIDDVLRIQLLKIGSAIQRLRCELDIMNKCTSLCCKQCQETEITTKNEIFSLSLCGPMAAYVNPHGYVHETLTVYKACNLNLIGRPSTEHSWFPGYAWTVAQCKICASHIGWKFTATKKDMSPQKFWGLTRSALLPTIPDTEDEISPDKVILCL
UniProt P48729, whole entry: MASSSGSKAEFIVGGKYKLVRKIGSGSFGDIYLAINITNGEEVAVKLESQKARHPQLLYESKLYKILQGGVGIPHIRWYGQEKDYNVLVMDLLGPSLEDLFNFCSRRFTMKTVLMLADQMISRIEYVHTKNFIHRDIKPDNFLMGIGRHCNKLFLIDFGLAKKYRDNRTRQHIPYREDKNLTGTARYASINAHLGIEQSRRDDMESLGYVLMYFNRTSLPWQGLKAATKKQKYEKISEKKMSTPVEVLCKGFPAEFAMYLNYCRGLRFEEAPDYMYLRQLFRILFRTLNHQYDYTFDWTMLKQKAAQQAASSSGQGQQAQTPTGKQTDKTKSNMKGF
UniProt Q13422, whole entry: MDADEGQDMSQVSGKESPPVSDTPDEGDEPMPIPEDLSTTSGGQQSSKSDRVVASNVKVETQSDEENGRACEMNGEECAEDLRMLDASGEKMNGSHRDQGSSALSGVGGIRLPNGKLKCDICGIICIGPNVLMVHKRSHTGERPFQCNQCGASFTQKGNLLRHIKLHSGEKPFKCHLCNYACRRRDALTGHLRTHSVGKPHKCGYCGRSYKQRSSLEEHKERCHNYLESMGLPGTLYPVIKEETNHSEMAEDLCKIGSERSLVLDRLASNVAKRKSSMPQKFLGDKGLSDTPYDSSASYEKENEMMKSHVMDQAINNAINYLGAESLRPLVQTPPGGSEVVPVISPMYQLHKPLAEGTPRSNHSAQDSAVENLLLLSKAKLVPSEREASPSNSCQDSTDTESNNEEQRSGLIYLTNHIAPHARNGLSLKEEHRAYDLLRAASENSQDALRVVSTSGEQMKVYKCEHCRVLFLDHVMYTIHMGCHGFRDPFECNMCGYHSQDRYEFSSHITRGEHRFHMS
UniProt Q9UKT9, whole entry: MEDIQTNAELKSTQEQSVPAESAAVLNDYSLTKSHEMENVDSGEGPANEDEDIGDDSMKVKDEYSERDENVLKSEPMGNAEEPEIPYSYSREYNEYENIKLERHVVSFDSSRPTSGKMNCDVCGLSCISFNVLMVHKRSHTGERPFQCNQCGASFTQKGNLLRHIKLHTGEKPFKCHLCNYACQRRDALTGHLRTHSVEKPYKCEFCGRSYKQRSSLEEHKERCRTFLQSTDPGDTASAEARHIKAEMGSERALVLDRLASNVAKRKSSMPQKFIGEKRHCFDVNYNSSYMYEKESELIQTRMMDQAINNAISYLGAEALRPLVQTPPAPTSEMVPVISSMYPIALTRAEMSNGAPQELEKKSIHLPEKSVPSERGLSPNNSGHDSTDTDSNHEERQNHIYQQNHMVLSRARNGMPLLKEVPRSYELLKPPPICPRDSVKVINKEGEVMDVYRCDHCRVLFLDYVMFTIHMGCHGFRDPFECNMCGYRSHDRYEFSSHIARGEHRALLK
UniProt P30291, whole entry: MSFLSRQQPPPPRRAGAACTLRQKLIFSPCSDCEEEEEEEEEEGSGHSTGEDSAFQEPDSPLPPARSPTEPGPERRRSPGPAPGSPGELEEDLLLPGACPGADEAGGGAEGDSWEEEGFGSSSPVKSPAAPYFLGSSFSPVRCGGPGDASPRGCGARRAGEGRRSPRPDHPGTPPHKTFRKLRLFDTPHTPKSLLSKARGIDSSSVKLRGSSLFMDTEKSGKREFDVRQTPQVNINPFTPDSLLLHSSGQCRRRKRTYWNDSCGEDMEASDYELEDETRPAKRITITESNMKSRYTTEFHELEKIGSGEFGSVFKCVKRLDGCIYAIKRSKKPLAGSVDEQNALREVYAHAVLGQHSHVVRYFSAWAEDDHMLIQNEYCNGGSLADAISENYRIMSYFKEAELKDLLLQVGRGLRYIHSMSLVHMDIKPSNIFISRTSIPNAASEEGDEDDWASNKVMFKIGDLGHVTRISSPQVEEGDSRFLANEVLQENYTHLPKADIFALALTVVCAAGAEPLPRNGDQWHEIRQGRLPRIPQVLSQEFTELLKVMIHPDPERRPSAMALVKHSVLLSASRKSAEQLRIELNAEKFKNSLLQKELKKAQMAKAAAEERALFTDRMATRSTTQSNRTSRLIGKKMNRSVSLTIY
UniProt Q9UKS7, whole entry: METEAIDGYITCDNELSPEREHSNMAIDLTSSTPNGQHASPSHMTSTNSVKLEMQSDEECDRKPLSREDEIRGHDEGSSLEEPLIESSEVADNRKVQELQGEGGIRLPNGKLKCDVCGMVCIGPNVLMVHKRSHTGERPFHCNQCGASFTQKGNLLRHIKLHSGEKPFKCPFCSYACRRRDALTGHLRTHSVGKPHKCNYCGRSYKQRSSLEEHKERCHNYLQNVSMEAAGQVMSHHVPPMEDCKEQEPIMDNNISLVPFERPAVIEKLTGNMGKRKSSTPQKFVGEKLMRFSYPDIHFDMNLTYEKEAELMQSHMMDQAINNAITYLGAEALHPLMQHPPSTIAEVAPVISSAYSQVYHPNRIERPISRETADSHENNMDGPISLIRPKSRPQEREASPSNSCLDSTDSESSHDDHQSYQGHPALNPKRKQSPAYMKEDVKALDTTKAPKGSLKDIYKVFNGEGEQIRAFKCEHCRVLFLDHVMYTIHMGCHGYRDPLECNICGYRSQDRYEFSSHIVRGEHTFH
UniProt Q16531, whole entry partner: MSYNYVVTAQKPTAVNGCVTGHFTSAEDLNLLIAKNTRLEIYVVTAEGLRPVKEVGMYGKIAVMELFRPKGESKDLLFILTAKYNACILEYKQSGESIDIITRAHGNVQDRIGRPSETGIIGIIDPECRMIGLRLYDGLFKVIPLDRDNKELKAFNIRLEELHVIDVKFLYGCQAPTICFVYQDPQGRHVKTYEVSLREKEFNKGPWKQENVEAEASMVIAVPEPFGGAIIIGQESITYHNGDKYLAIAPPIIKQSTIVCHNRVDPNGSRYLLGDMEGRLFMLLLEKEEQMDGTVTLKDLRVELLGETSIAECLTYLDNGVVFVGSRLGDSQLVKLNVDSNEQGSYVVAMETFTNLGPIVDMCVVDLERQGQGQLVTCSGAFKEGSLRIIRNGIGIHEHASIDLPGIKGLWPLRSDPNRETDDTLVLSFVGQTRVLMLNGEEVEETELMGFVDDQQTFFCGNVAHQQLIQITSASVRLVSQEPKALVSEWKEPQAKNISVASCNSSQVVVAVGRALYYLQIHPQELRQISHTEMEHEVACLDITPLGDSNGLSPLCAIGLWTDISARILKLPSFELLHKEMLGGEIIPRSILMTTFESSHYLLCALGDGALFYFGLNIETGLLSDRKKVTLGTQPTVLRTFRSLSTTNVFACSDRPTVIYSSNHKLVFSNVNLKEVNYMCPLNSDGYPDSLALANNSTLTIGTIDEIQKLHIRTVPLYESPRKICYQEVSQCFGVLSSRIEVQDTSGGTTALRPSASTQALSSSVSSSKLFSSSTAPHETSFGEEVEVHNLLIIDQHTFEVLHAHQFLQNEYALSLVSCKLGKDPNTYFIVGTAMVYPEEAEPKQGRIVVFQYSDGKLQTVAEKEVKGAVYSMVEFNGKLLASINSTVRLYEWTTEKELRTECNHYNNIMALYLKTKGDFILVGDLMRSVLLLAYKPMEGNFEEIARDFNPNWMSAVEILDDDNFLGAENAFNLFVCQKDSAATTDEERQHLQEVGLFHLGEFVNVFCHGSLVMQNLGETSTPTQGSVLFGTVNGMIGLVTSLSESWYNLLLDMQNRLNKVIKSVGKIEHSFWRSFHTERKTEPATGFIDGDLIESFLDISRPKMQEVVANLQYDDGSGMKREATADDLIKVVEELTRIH

According to patent EP4834897A1, “COMPOUNDS WITH TWO AZAHETEROCYCLES SUBSTITUTED ISOINDOLINONE SKELETON AND USES THEREOF” (dated 2026):

What follows are compounds tested against GSPT1 (Homo sapiens, UniProt P15170+Q96SW2) (assay: Western blot assay of substrate protein degradation in hPBMCs). Details: 24 hours treatment, compounds at 50 nM and 500 nM (concentration behind the class not stated).

Structure (SMILES)	substrate protein remaining % (GSPT1)
O=C1CCC(N2C(=O)c3ccc(C(=O)N4CCC(N5CCC(c6noc7cc(F)ccc67)CC5)C(F)(F)C4)cc3C2=O)C(=O)N1 (stereo not drawn)	A (0% ≤ substrate protein remaining % ≤ 80%)
CC1(C)CCC(CN2CCN(C3CCN(C(=O)c4cc5c(cc4F)C(=O)N(C4CCC(=O)NC4=O)C5)CC3(F)F)CC2)=C(c2ccc(Cl)cc2)C1 (stereo not drawn)	A (0% ≤ substrate protein remaining % ≤ 80%)
O=C1CCC(N2C(=O)c3ccc(C(=O)N4CCC(N5CCN(c6noc7cc(F)ccc67)CC5)CC4)cc3C2=O)C(=O)N1 (stereo not drawn)	A (0% ≤ substrate protein remaining % ≤ 80%)
O=C1CCC(N2C(=O)c3cccc(C(=O)N4CCC(N5CCN(C(c6ccccc6)c6ccccn6)CC5)C(F)(F)C4)c3C2=O)C(=O)N1 (stereo not drawn)	A (0% ≤ substrate protein remaining % ≤ 80%)
O=C1CCC(N2C(=O)c3ccc(CN4CCC(N5CC=C(c6cccc(Cl)c6Cl)CC5)C(F)(F)C4)cc3C2=O)C(=O)N1 (stereo not drawn)	A (0% ≤ substrate protein remaining % ≤ 80%)
O=C1CCN(N2Cc3cc(CN4CCC(N5CCN(C(c6ccccc6)c6ccccn6)CC5)C(F)(F)C4)ccc3C2=O)C(=O)N1 (stereo not drawn)	A (0% ≤ substrate protein remaining % ≤ 80%)
CC1(C)CCC(CN2CCN(C3CCN(Cc4cccc5c4C(=O)N(C4CCC(=O)NC4=O)C5=O)CC3(F)F)CC2)=C(c2ccc(Cl)cc2)C1 (stereo not drawn)	A (0% ≤ substrate protein remaining % ≤ 80%)
O=C1CCC(N2C(=O)c3ccc(C(=O)N4CCC(N5CCN(C(c6ccccc6)c6ccccn6)CC5)C(F)(F)C4)cc3C2=O)C(=O)N1 (stereo not drawn)	A (0% ≤ substrate protein remaining % ≤ 80%)

What follows are compounds tested against CK1α (Homo sapiens, UniProt P48729+Q96SW2) in the same assay as above. Details: 24 hours treatment, compounds at 50 nM and 500 nM (concentration behind the class not stated).

Structure (SMILES)	substrate protein remaining % (CK1a)
O=C1CCC(N2C(=O)c3ccc(C(=O)N4CCC(N5CCC(c6noc7cc(F)ccc67)CC5)C(F)(F)C4)cc3C2=O)C(=O)N1 (stereo not drawn)	B (80%< substrate protein remaining %≤ 100%)
CC1(C)CCC(CN2CCN(C3CCN(C(=O)c4cc5c(cc4F)C(=O)N(C4CCC(=O)NC4=O)C5)CC3(F)F)CC2)=C(c2ccc(Cl)cc2)C1 (stereo not drawn)	A (0% ≤ substrate protein remaining % ≤ 80%)
O=C1CCC(N2C(=O)c3ccc(C(=O)N4CCC(N5CCN(c6noc7cc(F)ccc67)CC5)CC4)cc3C2=O)C(=O)N1 (stereo not drawn)	B (80%< substrate protein remaining %≤ 100%)
O=C1CCC(N2C(=O)c3cccc(C(=O)N4CCC(N5CCN(C(c6ccccc6)c6ccccn6)CC5)C(F)(F)C4)c3C2=O)C(=O)N1 (stereo not drawn)	B (80%< substrate protein remaining %≤ 100%)
O=C1CCC(N2C(=O)c3ccc(CN4CCC(N5CC=C(c6cccc(Cl)c6Cl)CC5)C(F)(F)C4)cc3C2=O)C(=O)N1 (stereo not drawn)	B (80%< substrate protein remaining %≤ 100%)
O=C1CCN(N2Cc3cc(CN4CCC(N5CCN(C(c6ccccc6)c6ccccn6)CC5)C(F)(F)C4)ccc3C2=O)C(=O)N1 (stereo not drawn)	A (0% ≤ substrate protein remaining % ≤ 80%)
CC1(C)CCC(CN2CCN(C3CCN(Cc4cccc5c4C(=O)N(C4CCC(=O)NC4=O)C5=O)CC3(F)F)CC2)=C(c2ccc(Cl)cc2)C1 (stereo not drawn)	B (80%< substrate protein remaining %≤ 100%)
O=C1CCC(N2C(=O)c3ccc(C(=O)N4CCC(N5CCN(C(c6ccccc6)c6ccccn6)CC5)C(F)(F)C4)cc3C2=O)C(=O)N1 (stereo not drawn)	B (80%< substrate protein remaining %≤ 100%)

What follows are compounds tested against IKZF1 (Homo sapiens, UniProt Q13422+Q96SW2) in the same assay as above. Details: 24 hours treatment, compounds at 50 nM and 500 nM (concentration behind the class not stated).

Structure (SMILES)	substrate protein remaining % (IKZF 1)
O=C1CCC(N2C(=O)c3ccc(C(=O)N4CCC(N5CCC(c6noc7cc(F)ccc67)CC5)C(F)(F)C4)cc3C2=O)C(=O)N1 (stereo not drawn)	B (80%< substrate protein remaining %≤ 100%)
CC1(C)CCC(CN2CCN(C3CCN(C(=O)c4cc5c(cc4F)C(=O)N(C4CCC(=O)NC4=O)C5)CC3(F)F)CC2)=C(c2ccc(Cl)cc2)C1 (stereo not drawn)	B (80%< substrate protein remaining %≤ 100%)
O=C1CCC(N2C(=O)c3ccc(C(=O)N4CCC(N5CCN(c6noc7cc(F)ccc67)CC5)CC4)cc3C2=O)C(=O)N1 (stereo not drawn)	A (0% ≤ substrate protein remaining % ≤ 80%)
O=C1CCC(N2C(=O)c3cccc(C(=O)N4CCC(N5CCN(C(c6ccccc6)c6ccccn6)CC5)C(F)(F)C4)c3C2=O)C(=O)N1 (stereo not drawn)	B (80%< substrate protein remaining %≤ 100%)
O=C1CCC(N2C(=O)c3ccc(CN4CCC(N5CC=C(c6cccc(Cl)c6Cl)CC5)C(F)(F)C4)cc3C2=O)C(=O)N1 (stereo not drawn)	B (80%< substrate protein remaining %≤ 100%)
O=C1CCN(N2Cc3cc(CN4CCC(N5CCN(C(c6ccccc6)c6ccccn6)CC5)C(F)(F)C4)ccc3C2=O)C(=O)N1 (stereo not drawn)	B (80%< substrate protein remaining %≤ 100%)
CC1(C)CCC(CN2CCN(C3CCN(Cc4cccc5c4C(=O)N(C4CCC(=O)NC4=O)C5=O)CC3(F)F)CC2)=C(c2ccc(Cl)cc2)C1 (stereo not drawn)	B (80%< substrate protein remaining %≤ 100%)
O=C1CCC(N2C(=O)c3ccc(C(=O)N4CCC(N5CCN(C(c6ccccc6)c6ccccn6)CC5)C(F)(F)C4)cc3C2=O)C(=O)N1 (stereo not drawn)	B (80%< substrate protein remaining %≤ 100%)

The compounds below were run against IKZF3 (Homo sapiens, UniProt Q96SW2+Q9UKT9) in the same assay as above. Details: 24 hours treatment, compounds at 50 nM and 500 nM (concentration behind the class not stated).

Structure (SMILES)	substrate protein remaining % (IKZF3)
O=C1CCC(N2C(=O)c3ccc(C(=O)N4CCC(N5CCC(c6noc7cc(F)ccc67)CC5)C(F)(F)C4)cc3C2=O)C(=O)N1 (stereo not drawn)	B (80%< substrate protein remaining %≤ 100%)
CC1(C)CCC(CN2CCN(C3CCN(C(=O)c4cc5c(cc4F)C(=O)N(C4CCC(=O)NC4=O)C5)CC3(F)F)CC2)=C(c2ccc(Cl)cc2)C1 (stereo not drawn)	B (80%< substrate protein remaining %≤ 100%)
O=C1CCC(N2C(=O)c3ccc(C(=O)N4CCC(N5CCN(c6noc7cc(F)ccc67)CC5)CC4)cc3C2=O)C(=O)N1 (stereo not drawn)	B (80%< substrate protein remaining %≤ 100%)
O=C1CCC(N2C(=O)c3cccc(C(=O)N4CCC(N5CCN(C(c6ccccc6)c6ccccn6)CC5)C(F)(F)C4)c3C2=O)C(=O)N1 (stereo not drawn)	B (80%< substrate protein remaining %≤ 100%)
O=C1CCC(N2C(=O)c3ccc(CN4CCC(N5CC=C(c6cccc(Cl)c6Cl)CC5)C(F)(F)C4)cc3C2=O)C(=O)N1 (stereo not drawn)	B (80%< substrate protein remaining %≤ 100%)
O=C1CCN(N2Cc3cc(CN4CCC(N5CCN(C(c6ccccc6)c6ccccn6)CC5)C(F)(F)C4)ccc3C2=O)C(=O)N1 (stereo not drawn)	A (0% ≤ substrate protein remaining % ≤ 80%)
CC1(C)CCC(CN2CCN(C3CCN(Cc4cccc5c4C(=O)N(C4CCC(=O)NC4=O)C5=O)CC3(F)F)CC2)=C(c2ccc(Cl)cc2)C1 (stereo not drawn)	B (80%< substrate protein remaining %≤ 100%)
O=C1CCC(N2C(=O)c3ccc(C(=O)N4CCC(N5CCN(C(c6ccccc6)c6ccccn6)CC5)C(F)(F)C4)cc3C2=O)C(=O)N1 (stereo not drawn)	B (80%< substrate protein remaining %≤ 100%)

Each compound was assayed against WEE1 (Homo sapiens, UniProt P30291+Q96SW2) in the same assay as above. Details: 24 hours treatment, compounds at 50 nM and 500 nM (concentration behind the class not stated).

Structure (SMILES)	substrate protein remaining % (WEE1)
O=C1CCC(N2C(=O)c3ccc(C(=O)N4CCC(N5CCC(c6noc7cc(F)ccc67)CC5)C(F)(F)C4)cc3C2=O)C(=O)N1 (stereo not drawn)	B (80%< substrate protein remaining %≤ 100%)
CC1(C)CCC(CN2CCN(C3CCN(C(=O)c4cc5c(cc4F)C(=O)N(C4CCC(=O)NC4=O)C5)CC3(F)F)CC2)=C(c2ccc(Cl)cc2)C1 (stereo not drawn)	B (80%< substrate protein remaining %≤ 100%)
O=C1CCC(N2C(=O)c3ccc(C(=O)N4CCC(N5CCN(c6noc7cc(F)ccc67)CC5)CC4)cc3C2=O)C(=O)N1 (stereo not drawn)	B (80%< substrate protein remaining %≤ 100%)
O=C1CCC(N2C(=O)c3cccc(C(=O)N4CCC(N5CCN(C(c6ccccc6)c6ccccn6)CC5)C(F)(F)C4)c3C2=O)C(=O)N1 (stereo not drawn)	B (80%< substrate protein remaining %≤ 100%)
O=C1CCC(N2C(=O)c3ccc(CN4CCC(N5CC=C(c6cccc(Cl)c6Cl)CC5)C(F)(F)C4)cc3C2=O)C(=O)N1 (stereo not drawn)	B (80%< substrate protein remaining %≤ 100%)
O=C1CCN(N2Cc3cc(CN4CCC(N5CCN(C(c6ccccc6)c6ccccn6)CC5)C(F)(F)C4)ccc3C2=O)C(=O)N1 (stereo not drawn)	B (80%< substrate protein remaining %≤ 100%)
CC1(C)CCC(CN2CCN(C3CCN(Cc4cccc5c4C(=O)N(C4CCC(=O)NC4=O)C5=O)CC3(F)F)CC2)=C(c2ccc(Cl)cc2)C1 (stereo not drawn)	A (0% ≤ substrate protein remaining % ≤ 80%)
O=C1CCC(N2C(=O)c3ccc(C(=O)N4CCC(N5CCN(C(c6ccccc6)c6ccccn6)CC5)C(F)(F)C4)cc3C2=O)C(=O)N1 (stereo not drawn)	A (0% ≤ substrate protein remaining % ≤ 80%)

The compounds below were run against IKZF2 (Homo sapiens, UniProt Q96SW2+Q9UKS7) in the same assay as above. Details: 24 hours treatment, compounds at 50 nM and 500 nM (concentration behind the class not stated).

Structure (SMILES)	substrate protein remaining % (IKZF2)
O=C1CCC(N2C(=O)c3ccc(C(=O)N4CCC(N5CCC(c6noc7cc(F)ccc67)CC5)C(F)(F)C4)cc3C2=O)C(=O)N1 (stereo not drawn)	A (0% ≤ substrate protein remaining % ≤ 80%)
CC1(C)CCC(CN2CCN(C3CCN(C(=O)c4cc5c(cc4F)C(=O)N(C4CCC(=O)NC4=O)C5)CC3(F)F)CC2)=C(c2ccc(Cl)cc2)C1 (stereo not drawn)	B (80%< substrate protein remaining %≤ 100%)
O=C1CCC(N2C(=O)c3ccc(C(=O)N4CCC(N5CCN(c6noc7cc(F)ccc67)CC5)CC4)cc3C2=O)C(=O)N1 (stereo not drawn)	B (80%< substrate protein remaining %≤ 100%)
O=C1CCC(N2C(=O)c3cccc(C(=O)N4CCC(N5CCN(C(c6ccccc6)c6ccccn6)CC5)C(F)(F)C4)c3C2=O)C(=O)N1 (stereo not drawn)	B (80%< substrate protein remaining %≤ 100%)
O=C1CCC(N2C(=O)c3ccc(CN4CCC(N5CC=C(c6cccc(Cl)c6Cl)CC5)C(F)(F)C4)cc3C2=O)C(=O)N1 (stereo not drawn)	B (80%< substrate protein remaining %≤ 100%)
O=C1CCN(N2Cc3cc(CN4CCC(N5CCN(C(c6ccccc6)c6ccccn6)CC5)C(F)(F)C4)ccc3C2=O)C(=O)N1 (stereo not drawn)	B (80%< substrate protein remaining %≤ 100%)
CC1(C)CCC(CN2CCN(C3CCN(Cc4cccc5c4C(=O)N(C4CCC(=O)NC4=O)C5=O)CC3(F)F)CC2)=C(c2ccc(Cl)cc2)C1 (stereo not drawn)	A (0% ≤ substrate protein remaining % ≤ 80%)
O=C1CCC(N2C(=O)c3ccc(C(=O)N4CCC(N5CCN(C(c6ccccc6)c6ccccn6)CC5)C(F)(F)C4)cc3C2=O)C(=O)N1 (stereo not drawn)	B (80%< substrate protein remaining %≤ 100%)
